The subject of data set [1] is D-serine. As to the kind of experiment: Pharmacokinetics profile of D-serine in rat model, blood plasma. The note with it: G4 36.17 mg/kg, G5 31.01 mg/kg. The protocol: (§1) To assess and compare the pharmacokinetics profile of D-serine in rat model.
(§2) Six groups were divided into 4 sets of 3 rats each/subset for bleeding and organ (brain) collection—Total 72 rats
Plasma was separated using refrigerated centrifuge & stored in −80° C. before analysis. Blood was collected at time point 0, 2, 6 and 10 hrs at least from 3 rats/group/time point.
(§3) Supernatant was filtered with 0.2 micron amicon syringe filter (Millipore, Hessen, Germany), then directly transferred into auto sampler vials
(§4) An Accela™ ultra-high performance liquid chromatography (UHPLC) system (Thermo Fisher, Waltham, USA), coupled online via heated electrospray ionization source (HESI) with a Q-Exactive-Orbitrap mass spectrometer (Thermo Fisher), was employed for global metabolomics profiling with 1 μL sample injection volume. The metabolites were profiled using a C18 Hypersil Gold column (1.9 μm, 2.1×150 mm, Thermo).
(§5) The temperature of column oven was set at 35° C. and the sample manager was maintained at 4° C. The eluents acetonitrile and water containing 0.1% formic acid were employed in the electrospray ionization-positive (ESI+) mode.
(§6) The area under the plasma concentration time curve (AUC) value was calculated to the last quantifiable sample (AUClast) by using the log-linear trapezoidal rule.

In data set [2] the test system is D-serine. As to the kind of experiment: Pharmacokinetics profile of D-serine in rat model, brain tissue sample. As to conditions: rat brain tissue samples; G4 36.17 mg/kg, G5 31.01 mg/kg. The protocol: as §1, §2
Organ (Brain) collection: Rats were sacrificed each time point (3 rats/group/time point) by decapitation at 0, 2, 6 or 10 hr post dose. Brain was removed and cerebellum dissected on ice. Tissue samples were frozen on dry ice and stored at −80° C. until analysis.
as §3, §4, §5, §6

These results are taken from patent US11376277B2, “Synergistic medicinal compositions for treating dysfunctional D-serine signaling” (CELAGENEX RESEARCH (INDIA) PVT. LTD., priority 2020, dated 2022).

Consider `O=C([O-])c1ccccc1.[Na+]` [Test II, Sodium benzoate], for which the “AUC values of D-serine” value in data set [1] and in data set [2] was “increased” throughout.
